The record followed here is patent US20220259193A1, “KCNT1 INHIBITORS AND METHODS OF USE” (Praxis Precision Medicines, Inc., priority 2019, published 2022).

Chains of the proteins cited; added tags and fusions are not shown.
UniProt Q5JUK3, whole entry: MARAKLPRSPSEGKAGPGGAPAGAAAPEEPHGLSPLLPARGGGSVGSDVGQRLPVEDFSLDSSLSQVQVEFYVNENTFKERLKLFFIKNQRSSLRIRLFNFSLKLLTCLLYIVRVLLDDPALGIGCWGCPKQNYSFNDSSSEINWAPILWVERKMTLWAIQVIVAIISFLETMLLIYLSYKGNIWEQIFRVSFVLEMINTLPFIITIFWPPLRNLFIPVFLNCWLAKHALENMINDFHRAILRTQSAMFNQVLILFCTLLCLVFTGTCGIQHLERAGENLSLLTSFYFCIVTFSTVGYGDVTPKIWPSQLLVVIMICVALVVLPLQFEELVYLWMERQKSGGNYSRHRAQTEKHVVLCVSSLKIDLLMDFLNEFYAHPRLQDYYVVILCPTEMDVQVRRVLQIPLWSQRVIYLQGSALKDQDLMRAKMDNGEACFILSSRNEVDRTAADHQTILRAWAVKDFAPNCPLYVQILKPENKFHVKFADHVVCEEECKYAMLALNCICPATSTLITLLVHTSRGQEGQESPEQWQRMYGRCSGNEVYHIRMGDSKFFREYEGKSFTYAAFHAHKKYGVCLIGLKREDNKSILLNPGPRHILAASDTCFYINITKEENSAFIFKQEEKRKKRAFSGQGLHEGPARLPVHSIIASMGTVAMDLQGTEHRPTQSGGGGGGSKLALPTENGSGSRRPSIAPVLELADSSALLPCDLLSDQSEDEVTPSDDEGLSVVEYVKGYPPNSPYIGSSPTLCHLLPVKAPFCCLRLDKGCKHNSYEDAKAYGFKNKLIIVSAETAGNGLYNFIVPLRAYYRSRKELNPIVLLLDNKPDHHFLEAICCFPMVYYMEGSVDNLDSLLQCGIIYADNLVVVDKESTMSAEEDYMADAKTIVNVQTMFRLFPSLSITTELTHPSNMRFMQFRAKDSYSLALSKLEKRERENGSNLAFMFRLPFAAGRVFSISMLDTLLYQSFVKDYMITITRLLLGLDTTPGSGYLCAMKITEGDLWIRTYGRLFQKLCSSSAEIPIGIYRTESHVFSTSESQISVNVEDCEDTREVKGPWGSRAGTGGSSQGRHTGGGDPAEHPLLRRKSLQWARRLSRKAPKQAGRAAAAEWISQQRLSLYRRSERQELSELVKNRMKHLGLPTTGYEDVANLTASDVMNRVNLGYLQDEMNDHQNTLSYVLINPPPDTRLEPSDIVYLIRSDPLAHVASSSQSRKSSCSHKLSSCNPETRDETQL

pIC50: −log10 of the molar value.

This assay addresses KCNT1 (KNa1.1, Slack) (Homo sapiens, UniProt Q5JUK3). Briefly: KCNT1 patch clamp assay (SyncroPatch 384PE automated patch clamp). The format is cell-based. As to conditions: read-out: KCNT1-WT IC50; tetracycline inducible HEK-TREX cell line; perforated patch; step from −80 mV to 0 mV; room temperature. (Patch clamp records ionic current or voltage across a cell membrane.)
The term pIC50 denotes −log10 of the IC50, conventionally taken in molar units. For `Cc1nn(C(C)C)cc1C(=O)N[C@@H](C)c1nc(-c2cccc(C(F)F)c2)no1`, the pIC50 was above 6.00. With `Cc1nn(C(F)F)cc1C(=O)N[C@@H](C)c1nc(-c2cccc(F)c2)no1` the figure was above 6.00; with `CC(C)c1cc(C(=O)N[C@@H](C)c2nc(-c3cccc(C(F)(F)F)c3)no2)n(C)n1` (single isomer, unassigned), 4.70 to 6.00; with `CC(C)c1cc(C(=O)N[C@@H](C)c2nc(-c3cccc(F)c3)no2)n(C)n1` (single isomer, unassigned), 4.70 to 6.00. For `CC(C)c1cc(C(=O)N[C@H](C)c2nc(-c3cccc(C(F)(F)F)c3)no2)n(C)n1` (single isomer, unassigned), the pIC50 was above 6.00.

With `CC(C)c1cc(C(=O)N[C@H](C)c2nc(-c3cccc(F)c3)no2)n(C)n1` (single isomer, unassigned), the pIC50 was above 6.00.

As for `CC(NC(=O)c1cc(C(F)(F)F)nn1C)c1nc(-c2ccc(Cl)cc2Cl)no1` (single isomer, unassigned), the pIC50 is above 6.00.

Turning to `C[C@@H](NC(=O)c1cc(C(F)(F)F)nn1C1CC1)c1nc(-c2cccc(Cl)c2)no1` (single isomer, unassigned), the pIC50 was 4.70 to 6.00. Consider `C[C@@H](NC(=O)c1cc(C2CC2)nn1C)c1nc(-c2ccc(Cl)cc2)no1` (single isomer, unassigned), for which the pIC50 is 4.70 to 6.00.

As to `C[C@@H](NC(=O)c1cc(C2CC2)nn1C)c1nc(-c2cccc(Cl)c2)no1` (single isomer, unassigned), the pIC50 is 4.70 to 6.00. Consider `C[C@H](NC(=O)c1cc(C(F)(F)F)nn1C1CC1)c1nc(-c2cccc(Cl)c2)no1` (single isomer, unassigned), for which the negative logarithm of the IC50 (pIC50) was above 6.00.

Take `C[C@H](NC(=O)c1cc(C2CC2)nn1C)c1nc(-c2ccc(Cl)cc2)no1` (single isomer, unassigned): the pIC50 was above 6.00. With `C[C@H](NC(=O)c1cc(C2CC2)nn1C)c1nc(-c2cccc(Cl)c2)no1` (single isomer, unassigned) the figure was above 6.00; with `Cc1cccc(-c2noc(C(C)NC(=O)c3cc(C(F)(F)F)nn3CC(F)F)n2)c1` (single isomer, unassigned), above 6.00; with `Cc1cccc(-c2noc([C@@H](C)NC(=O)c3cc(C(C)(C)C)nn3C)n2)c1` (single isomer, unassigned), above 6.00. With `Cc1cccc(-c2noc([C@@H](C)NC(=O)c3cc(C(C)C)nn3C)n2)c1` (single isomer, unassigned), the pIC50 was above 6.00. Under `Cc1cccc(-c2noc([C@@H](C)NC(=O)c3cc(C(F)(F)F)nn3C)n2)c1` (single isomer, unassigned) stands above 6.00. For `Cc1cccc(-c2noc([C@@H](C)NC(=O)c3cc(C(F)F)nn3C)n2)c1` (single isomer, unassigned), the pIC50 was above 6.00. Turning to `Cc1cccc(-c2noc([C@@H](C)NC(=O)c3cc(C)nn3C(C)C)n2)c1` (single isomer, unassigned), the pIC50 is above 6.00. Under `Cc1cccc(-c2noc([C@@H](C)NC(=O)c3cc(C)nn3C(F)F)n2)c1` (single isomer, unassigned) stands 4.70 to 6.00; under `Cc1cccc(-c2noc([C@@H](C)NC(=O)c3cc(C)nn3C)n2)c1` (single isomer, unassigned), above 6.00. As for `Cc1cccc(-c2noc([C@@H](C)NC(=O)c3nn(C(C)C)cc3C)n2)c1` (single isomer, unassigned), the pIC50 was 4.70 to 6.00. Under `Cc1cccc(-c2noc([C@H](C)NC(=O)c3cc(C(C)(C)C)nn3C)n2)c1` (single isomer, unassigned) stands above 6.00; under `Cc1cccc(-c2noc([C@H](C)NC(=O)c3cc(C(C)C)nn3C)n2)c1` (single isomer, unassigned), 4.70 to 6.00.

On to `Cc1cccc(-c2noc([C@H](C)NC(=O)c3cc(C(F)(F)F)nn3C)n2)c1` (single isomer, unassigned), for which the pIC50 was 4.70 to 6.00. Under `Cc1cccc(-c2noc([C@H](C)NC(=O)c3cc(C(F)F)nn3C)n2)c1` (single isomer, unassigned) stands 4.70 to 6.00; under `Cc1cccc(-c2noc([C@H](C)NC(=O)c3cc(C)nn3C(C)C)n2)c1` (single isomer, unassigned), 4.70 to 6.00. Under `Cc1cccc(-c2noc([C@H](C)NC(=O)c3cc(C)nn3C(F)F)n2)c1` (single isomer, unassigned) stands above 6.00; under `Cc1cccc(-c2noc([C@H](C)NC(=O)c3cc(C)nn3C)n2)c1` (single isomer, unassigned), 4.70 to 6.00.

Regarding `Cc1cccc(-c2noc([C@H](C)NC(=O)c3nn(C(C)C)cc3C)n2)c1` (single isomer, unassigned), the negative-log IC50 (pIC50) was 4.70 to 6.00. On to `Cn1nc(C(F)(F)F)cc1C(=O)NC(c1nc(-c2cccc(F)c2)no1)C1CCCO1` (single isomer, unassigned) [172], for which the pIC50 was 4.70 to 6.00. As for `Cn1nc(C(F)(F)F)cc1C(=O)NC(c1nc(-c2cccc(F)c2)no1)C1CCCO1` (single isomer, unassigned) [173], the pIC50 is 4.70 to 6.00. Under `Cn1nc(C(F)(F)F)cc1C(=O)NC(c1nc(-c2cccc(F)c2)no1)C1CCCO1` (single isomer, unassigned) [174] stands above 6.00; under `Cn1nc(C(F)(F)F)cc1C(=O)NC(c1nc(-c2cccc(F)c2)no1)C1CCCO1` (single isomer, unassigned) [175], above 6.00.
